58 compounds from publication PMC5681660, “Reduced hepatitis B and D viral entry using clinically applied drugs as novel inhibitors of the bile acid transporter NTCP” (Scientific Reports, 2017) can be followed below.

Structures can show the parent of a compound that is named as a salt.

In the first experiment the target is T1, human NTCP (Homo sapiens, UniProt Q14973).
T1 sequence (Q14973 1-349): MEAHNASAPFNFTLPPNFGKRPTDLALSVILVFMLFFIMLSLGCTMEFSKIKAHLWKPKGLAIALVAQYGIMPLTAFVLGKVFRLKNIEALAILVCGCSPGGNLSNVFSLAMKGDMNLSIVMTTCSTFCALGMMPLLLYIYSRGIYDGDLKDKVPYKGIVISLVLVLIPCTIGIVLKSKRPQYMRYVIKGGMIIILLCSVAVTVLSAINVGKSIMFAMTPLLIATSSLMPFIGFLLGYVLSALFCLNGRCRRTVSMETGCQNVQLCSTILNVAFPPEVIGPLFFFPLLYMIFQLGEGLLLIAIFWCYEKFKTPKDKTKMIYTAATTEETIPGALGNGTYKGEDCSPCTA
The experiment is described as follows: Screening fluorescent competitive Myrcludex B-FITC binding assay (96-well, 10 µM drug). The following applies: 0.5 h, read-out: %NTCP binding, screening Myrcludex B-FITC binding, 10 µM drug, Prestwick library.
As for `CC(C)(C)NCC(O)c1cc(Cl)c(N)c(Cl)c1` (stereo not shown) [Clenbuterol hydrochloride], the remaining activity at 10 µM came to 73.8%.

Turning to `C[C@]12N[C@H](Cc3ccccc31)c1ccccc12` [Dizocilpine maleate], the remaining activity at 10 µM was 82%. On the same count and under the same terms, the figure for `O=c1[nH]c2ccccc2n1CCCN1CCC(n2c(=O)[nH]c3cc(Cl)ccc32)CC1` [Domperidone] is 71.7%; for `C=CCOC(Cn1ccnc1)c1ccc(Cl)cc1Cl` (stereo not shown) [Enilconazole] it is 108%.

The same experiment, now with this note: screening Myrcludex B-FITC binding, 10 µM drug.
Consider `COc1cc(N)c(Cl)cc1C(=O)NC1CCN(CCCOc2ccc(F)cc2)CC1OC` (stereo not shown) [Cisapride], for which the B-score binding assay is on record as -1.274. Still for that read-out and setting: in the case of `CN(C)CCCC1(c2ccc(F)cc2)OCc2cc(C#N)ccc21` (stereo not shown) [Citalopram Hydrobromide] it was -0.075; in that of `Nc1nc(Cl)nc2c1ncn2[C@H]1C[C@H](O)[C@@H](CO)O1` [Cladribine], -1.838; in that of `CC(C)(C)NCC(O)c1cc(Cl)c(N)c(Cl)c1` (stereo not shown) [Clenbuterol hydrochloride], 0.16. `Oc1c(I)cc(Cl)c2cccnc12` [Clioquinol]: the B-score binding assay is -0.219. Still for that read-out and setting: in the case of `CCC(=O)O[C@]1(C(=O)CCl)[C@@H](C)C[C@H]2[C@@H]3CCC4=CC(=O)C=C[C@]4(C)[C@@]3(F)[C@@H](O)C[C@@]21C` [Clobetasol propionate] it was -0.984; in that of `CC(CN(C)C)C(C)(O)Cc1ccc(Cl)cc1.Cl` (stereo not shown) [Clobutinol hydrochloride], -0.481. The same measure, in the same setting: in the case of `CCCCCCC[N+](CC)(CC)CCCCc1ccc(Cl)cc1.Cc1ccc(S(=O)(=O)[O-])cc1` [Clofilium tosylate] it was -1.116. The same measure, in the same setting: in the case of `C[C@@H]1CCC[C@H](C)N1NC(=O)c1ccc(Cl)c(S(N)(=O)=O)c1` [Clopamide] it was -2.187; in that of `C#CCN(C)CCCOc1ccc(Cl)cc1Cl` [Clorgyline hydrochloride], -0.207. For `Cc1cc(C(C#N)c2ccc(Cl)cc2)c(Cl)cc1NC(=O)c1cc(I)cc(I)c1O` (stereo not shown) [Closantel], the B-score binding assay is -1.965. On the same count and under the same terms, the figure for `Clc1ccccc1C(c1ccccc1)(c1ccccc1)n1ccnc1` [Clotrimazole] is -1.322; for `Cc1onc(-c2ccccc2Cl)c1C(=O)N[C@@H]1C(=O)N2[C@@H]1SC(C)(C)[C@@H]2C(=O)[O-].[Na+]` [Cloxacillin sodium salt] it is -2.225; for `CN1CCN(C(c2ccccc2)c2ccccc2)CC1.Cl` [Cyclizine hydrochloride] it is 23.152. Take `C[C@@H]1C[C@@H]([C@H](O)CC2CC(=O)NC(=O)C2)C(=O)[C@@H](C)C1` [Cycloheximide]: the B-score binding assay was -0.859. `CN(C)CCOC(=O)C(c1ccccc1)C1(O)CCCC1` (stereo not shown) [Cyclopentolate hydrochloride] gave a B-score binding assay of 1.133. For `Nc1ccc(S(=O)(=O)c2ccc(N)cc2)cc1` [Dapsone], the B-score binding assay is on record as -2.85. `CC(=O)N(O)CCCCCNC(=O)CCC(=O)N(O)CCCCCNC(=O)CCC(=O)N(O)CCCCCN` [Deferoxamine mesylate] displayed a B-score binding assay of -0.769. In the case of `CC[N+](CC)(CC(=O)Nc1c(C)cccc1C)Cc1ccccc1` [Denatonium benzoate], the B-score binding assay was -0.18.

In the case of `CC(=O)OCC(=O)[C@@]1(O)[C@H](C)C[C@H]2[C@@H]3CCC4=CC(=O)C=C[C@]4(C)[C@@]3(F)[C@@H](O)C[C@@]21C` [Dexamethasone acetate], the B-score binding assay is on record as -0.201. `CC(=O)Oc1cccc2c1C(=O)c1c(OC(C)=O)cc(C(=O)O)cc1C2=O` [Diacerein]: the B-score binding assay is 2.04. On the same count and under the same terms, the figure for `CN(C)CCN1C(=O)c2ccccc2N(C)c2ccccc21.Cl` [Dibenzepine hydrochloride] is 0.211; for `N#CC(c1ccc(Cl)cc1)c1c(Cl)cc(-n2ncc(=O)[nH]c2=O)cc1Cl` (stereo not shown) [Diclazuril] it is -0.084; for `O=C(O)Cc1ccccc1Nc1c(Cl)cccc1Cl` [Diclofenac sodium] it is 0.909. Compound `CC/C(=C(/CC)c1ccc(O)cc1)c1ccc(O)cc1` [Diethylstilbestrol] had a B-score binding assay of -1.483. Still for that read-out and setting: in the case of `O=C(O)c1cc(-c2ccc(F)cc2F)ccc1O` [Diflunisal] it was 0.017; in that of `CN[C@@H]1[C@H](O[C@H]2[C@H](O[C@H]3[C@H](O)[C@@H](O)[C@H](NC(=N)N)[C@@H](O)[C@@H]3NC(=N)N)O[C@@H](C)[C@]2(O)CO)O[C@@H](CO)[C@H](O)[C@H]1O` [Dihydrostreptomycin sulfate], -1.128. In turn, `COc1cc(C(=O)OCCCN2CCCN(CCCOC(=O)c3cc(OC)c(OC)c(OC)c3)CC2)cc(OC)c1OC.Cl.Cl` [Dilazep dihydrochloride] came in with a B-score binding assay of 3.166. Turning to `CCCCc1cc2ccccc2c(OCCN(C)C)n1` [Dimethisoquin hydrochloride], the B-score binding assay was -1.655. Take `CCCCC[C@H](O)/C=C/[C@@H]1[C@@H](C/C=C\CCCC(=O)O)[C@@H](O)C[C@H]1O` [Dinoprost trometamol]: the B-score binding assay is -0.373. Same read-out and setting: the figure for `COc1ccc(-c2cc(=O)c3c(O)cc(O[C@@H]4O[C@H](CO[C@@H]5O[C@@H](C)[C@H](O)[C@@H](O)[C@H]5O)[C@@H](O)[C@H](O)[C@H]4O)cc3o2)cc1O` [Diosmin] is -0.897; for `CN1CCC(OC(c2ccccc2)c2ccccc2)CC1` [Diphenylpyraline hydrochloride] it is -2.941; for `CCN(CC)C(=S)SSC(=S)N(CC)CC` [Disulfiram] it is -1.387. Same read-out and setting: in the case of `C[C@]12N[C@H](Cc3ccccc31)c1ccccc12` [Dizocilpine maleate] it was -0.089.

`CC(=O)O[C@@]12CO[C@@H]1C[C@H](O)[C@@]1(C)C(=O)[C@H](O)C3=C(C)[C@@H](OC(=O)[C@H](O)[C@@H](NC(=O)OC(C)(C)C)c4ccccc4)C[C@@](O)([C@@H](OC(=O)c4ccccc4)[C@H]21)C3(C)C` [Docetaxel] gave a B-score binding assay of -0.007. Turning to `O=c1[nH]c2ccccc2n1CCCN1CCC(n2c(=O)[nH]c3cc(Cl)ccc32)CC1` [Domperidone], the B-score binding assay is on record as 1.228. Still for that read-out and setting: in the case of `CCN(CC)CCOC(=O)C(c1ccccc1)C1CCCCC1` (stereo not shown) [Drofenine hydrochloride] it was -0.059; in that of `CCCCOc1ccc(C(=O)CCN2CCCCC2)cc1` [Dyclonine hydrochloride], -0.002; in that of `CC(=O)[C@H]1CC[C@H]2[C@@H]3C=CC4=CC(=O)CC[C@@]4(C)[C@@H]3CC[C@]12C` [Dydrogesterone], 0.988. On the same count and under the same terms, the figure for `O=c1c2ccccc2[se]n1-c1ccccc1` [Ebselen] is -9.607.

`Clc1ccc(COC(Cn2ccnc2)c2ccc(Cl)cc2Cl)cc1` (stereo not shown) [Econazole nitrate] displayed a B-score binding assay of -0.677. Same read-out and setting: the figure for `CCOCCn1c(N2CCCN(C)CC2)nc2ccccc21` [Emedastine] is 0.028. The compound `C=CCOC(Cn1ccnc1)c1ccc(Cl)cc1Cl` (stereo not shown) [Enilconazole] displayed a B-score binding assay of 0.029. Consider `COc1cc(C)nc(-n2nc(C)cc2OC)n1` [Epirizole], for which the B-score binding assay is given as -3.

For `C[C@]12CC[C@H]3C(=CCc4cc(O)ccc43)[C@@H]1CCC2=O` [Equilin], the B-score binding assay came out at 0.223. Still for that read-out and setting: the figure for `C#Cc1cccc(Nc2ncnc3cc(OCCOC)c(OCCOC)cc23)c1` [Erlotinib] is 0.555; for `CN(C)CCC[C@@]1(c2ccc(F)cc2)OCc2cc(C#N)ccc21` [Escitalopram oxalate] it is -0.472. Consider `CNC(=O)Oc1ccc2c(c1)[C@]1(C)CCN(C)[C@@H]1N2C` [Eserine hemisulfate salt], for which the B-score binding assay is listed as -1.774. For `C[C@]12CC[C@@H]3c4ccc(O)cc4CC[C@H]3[C@@H]1CC[C@@H]2O` [Estradiol-17 beta], the B-score binding assay is -1.447.

For the compound `C[C@]12CC[C@@H]3c4ccc(OC(=O)N(CCCl)CCCl)cc4CC[C@H]3[C@@H]1CC[C@@H]2O` [Estramustine], the B-score binding assay is listed as -2.085. On the same count and under the same terms, the figure for `C[C@]12CC[C@@H]3c4ccc(O)cc4CC[C@H]3[C@@H]1C[C@@H](O)[C@@H]2O` [Estriol] is -0.389.

As for `C[C@]12CC[C@@H]3c4ccc(OS(=O)(=O)O)cc4CC[C@H]3[C@@H]1CCC2=O` [Estropipate], the B-score binding assay is -2.364.

Staying with this experiment, now noted: screening Myrcludex B-FITC binding, 10 µM drug, Prestwick library.
Turning to `CC(CN(C)C)C(C)(O)Cc1ccc(Cl)cc1.Cl` (stereo not shown) [Clobutinol hydrochloride], the “%NTCP binding” value is reported as 47.1079%. On the same count and under the same terms, the figure for `CN1CCN(C(c2ccccc2)c2ccccc2)CC1.Cl` [Cyclizine hydrochloride] is 101.293%; for `CN(C)CCN1C(=O)c2ccccc2N(C)c2ccccc21.Cl` [Dibenzepine hydrochloride] it is 84.8755%. On the same count and under the same terms, the figure for `COc1cc(C(=O)OCCCN2CCCN(CCCOC(=O)c3cc(OC)c(OC)c(OC)c3)CC2)cc(OC)c1OC.Cl.Cl` [Dilazep dihydrochloride] is 58.9014%; for `CS(=O)(=O)O.O=C(O[C@H]1C[C@H]2CC3C[C@@H](C1)N2CC3=O)c1c[nH]c2ccccc12` [Dolasetron mesilate] it is 103.338%.

The experiment is the same for the next values; noted with them: screening Myrcludex B-FITC binding, 10 µM drug; B-score.
`C[C@@H]1C[C@H]2[C@@H]3C[C@H](F)C4=CC(=O)C=C[C@]4(C)[C@@]3(Cl)[C@@H](O)C[C@]2(C)[C@H]1C(=O)COC(=O)C(C)(C)C` [Clocortolone pivalate] gave a B-score binding assay of 1.016. Same read-out and setting: in the case of `CCCCOc1cc(C(=O)NCCN(CC)CC)c2ccccc2n1` [Dibucaine] it was 3.478. On the same count and under the same terms, the figure for `CN(C(=O)C(Cl)Cl)c1ccc(OC(=O)c2ccco2)cc1` [Diloxanide furoate] is 1.597; for `C[N+]1(C)CCC(=C(c2ccccc2)c2ccccc2)CC1` [Diphemanil methylsulfate] it is 2.052; for `CNCC(O)c1ccc(OC(=O)C(C)(C)C)c(OC(=O)C(C)(C)C)c1` (stereo not shown) [Dipivefrin hydrochloride] it is 2.145.

The compound `CS(=O)(=O)O.O=C(O[C@H]1C[C@H]2CC3C[C@@H](C1)N2CC3=O)c1c[nH]c2ccccc12` [Dolasetron mesilate] gave a B-score binding assay of 1.603.
